Measured values taken from ChEMBL document CHEMBL3826971 (Bioorg Med Chem Lett, 2016).

By UniProt entry, the sequences of proteins in these tests, tags left out. Residues count along the entry.
UniProt P06276, 29-602 limits assumed: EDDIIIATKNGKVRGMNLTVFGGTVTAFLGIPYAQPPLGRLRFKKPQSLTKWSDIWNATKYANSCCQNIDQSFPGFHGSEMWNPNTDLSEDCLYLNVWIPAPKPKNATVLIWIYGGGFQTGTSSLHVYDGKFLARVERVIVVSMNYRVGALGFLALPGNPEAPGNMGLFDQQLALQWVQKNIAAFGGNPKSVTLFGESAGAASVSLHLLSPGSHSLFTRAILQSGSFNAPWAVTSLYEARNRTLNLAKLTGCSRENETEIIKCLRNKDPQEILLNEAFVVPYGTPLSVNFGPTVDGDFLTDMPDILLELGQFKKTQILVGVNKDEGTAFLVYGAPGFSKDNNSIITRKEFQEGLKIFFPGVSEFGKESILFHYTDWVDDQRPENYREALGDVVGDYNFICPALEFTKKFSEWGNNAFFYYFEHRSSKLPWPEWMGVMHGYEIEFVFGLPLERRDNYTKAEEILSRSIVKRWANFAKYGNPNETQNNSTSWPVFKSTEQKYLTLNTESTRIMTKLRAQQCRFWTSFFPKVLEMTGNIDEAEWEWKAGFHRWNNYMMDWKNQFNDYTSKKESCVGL
UniProt P22303, 32-614 limits assumed: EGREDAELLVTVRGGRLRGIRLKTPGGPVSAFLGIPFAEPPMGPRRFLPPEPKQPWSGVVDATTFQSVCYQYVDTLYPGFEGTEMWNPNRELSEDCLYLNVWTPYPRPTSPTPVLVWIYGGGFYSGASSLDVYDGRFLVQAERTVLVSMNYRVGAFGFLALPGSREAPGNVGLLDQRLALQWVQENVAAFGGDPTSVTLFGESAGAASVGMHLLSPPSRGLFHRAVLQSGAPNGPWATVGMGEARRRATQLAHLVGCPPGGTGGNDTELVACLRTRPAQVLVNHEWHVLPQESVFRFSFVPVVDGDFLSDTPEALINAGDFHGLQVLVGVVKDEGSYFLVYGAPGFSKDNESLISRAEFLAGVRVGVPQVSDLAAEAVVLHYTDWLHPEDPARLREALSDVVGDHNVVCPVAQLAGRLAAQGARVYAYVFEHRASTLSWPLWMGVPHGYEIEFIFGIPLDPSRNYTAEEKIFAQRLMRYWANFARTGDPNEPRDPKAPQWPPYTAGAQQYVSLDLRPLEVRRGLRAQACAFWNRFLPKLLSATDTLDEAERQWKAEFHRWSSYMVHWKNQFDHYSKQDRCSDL

Legend:
Cholinesterase = Cholinesterase (Homo sapiens, UniProt P06276); experiment: Inhibition of human plasma BChE assessed as butyrylthiocholine hydrolysis preincubated for 10 mins followed by addition of substrate measured after 2 mins by spectrophotometric method
Acetylcholinesterase = Acetylcholinesterase (Homo sapiens, UniProt P22303); experiment: Inhibition of human AChE assessed as acetylthiocholine hydrolysis preincubated for 10 mins followed by addition of substrate measured after 2 mins by spectrophotometric method

In the case of `CCCCCCCC1OCc2c[n+](C)c(C)c(OC(=O)N(C)C)c2CO1` (configuration not stated), the IC50 (Cholinesterase) is reported as 8.1 µM and the IC50 (Acetylcholinesterase) is reported as 2.1 µM.
